Amino acid sequences for entries named in this document (tags omitted). Residues count along the entry.
UniProt P05067, 672-711 limits assumed: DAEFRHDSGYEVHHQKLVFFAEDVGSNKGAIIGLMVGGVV

In patent US20100249408A1, “USE OF NOVEL COMPOUND HAVING AFFINITY FOR AMYLOID, AND PROCESS FOR PRODUCTION OF THE SAME” (NIHON MEDI-PHYSICS CO., LTD., priority 2007, published 2010):

Biological target: T1, amyloid (aggregated Aβ1-40) (Homo sapiens, UniProt P05067)
T1 construct: Aβ1-40 (Peptide Institute) was dissolved in phosphate buffer (pH 7.4); purchased Peptide Institute
Assay: Measurement of amyloid affinity: in vitro binding test, inhibition of [125I]3′-I-BTA-0 binding
Details: inhibition of [125I]3′-I-BTA-0 (400 pmol/L) binding to aggregated Aβ1-40 (1 μmol/L), pH 7.4, 22° C., 3 hours
Experimental: Affinity of the present compounds with amyloid was examined by the following in vitro binding tests.
(1) Aβ1-40 (Peptide Institute) was dissolved in phosphate buffer (pH 7.4) and shaken at 37° C. for 62-72 hours, to obtain a suspension of aggregated Aβ (concentration: 1 mg/mL equivalent, hereinafter referred to as amyloid suspension in these Examples).
(3) According to the method described in a literature (Wang, Y., et al., J. Labeled Compounds Radiopharmaceut. 44, 5239 (2001)), [^125I]2-(3′-iodo-4′-aminophenyl)benzothiazole (hereinafter referred to as [^125I]3′-I-BTA-0) was prepared from a labeling precursor 2-(4′-aminophenyl)benzothiazole, and dissolved in ethanol. […]
(7) The glass fiber filter used for the filtration of each sample solution was washed with a 0.1% bovine serum albumin-containing phosphate buffer (pH 7.4) (0.5 mL×5), and radioactivity of the glass fiber filter was measured with an autowell gamma system (manufactured by Aloka, Type: ARC-301B).
(8) Separately, a solution containing 15 μmol/L of 6-Me-BTA-2, 400 pmol/L of [^125I]3′-I-BTA-0 and 1 μmol/L of Aβ1-40 in a 0.1% bovine serum albumin-containing phosphate buffer (pH 7.4) was prepared and subjected to the same procedures as described above in (6) and (7) to measure a radioactivity level. […]

## Cc1ccc2c(c1)sc(-c1ccc(N(C)C)cc1)[n+]2C [Thioflavin T, reference compound]
  IC50: > 1000 nM
